Literature values, collected in patent publication US20220354833A1, “ALVELESTAT FOR USE IN THE TREATMENT OF GRAFT REJECTION, BRONCHIOLITIS OBLITERANS SYNDROME AND GRAFT VERSUS HOST DISEASE” (MEREO BIOPHARMA 4 LIMITED, priority 2019, published 2022).

The chains behind the UniProt entries cited, without tags or fusion partners. Residues count along the entry.
UniProt P08311, 21-244 limits assumed: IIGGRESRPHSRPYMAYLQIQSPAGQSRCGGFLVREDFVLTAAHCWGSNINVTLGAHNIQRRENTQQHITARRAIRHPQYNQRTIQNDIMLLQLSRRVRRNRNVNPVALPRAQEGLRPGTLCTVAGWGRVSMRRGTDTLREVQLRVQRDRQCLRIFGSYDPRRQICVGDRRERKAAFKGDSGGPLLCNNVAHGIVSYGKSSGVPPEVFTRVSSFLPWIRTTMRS
UniProt P24158, 28-248 limits assumed: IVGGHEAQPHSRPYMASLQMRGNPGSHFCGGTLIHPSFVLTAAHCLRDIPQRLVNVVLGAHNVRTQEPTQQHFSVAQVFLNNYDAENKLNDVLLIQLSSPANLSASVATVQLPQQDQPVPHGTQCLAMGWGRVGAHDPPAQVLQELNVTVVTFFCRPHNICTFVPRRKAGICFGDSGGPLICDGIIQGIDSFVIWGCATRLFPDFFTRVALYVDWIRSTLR
UniProt P08246, 30-267 limits assumed: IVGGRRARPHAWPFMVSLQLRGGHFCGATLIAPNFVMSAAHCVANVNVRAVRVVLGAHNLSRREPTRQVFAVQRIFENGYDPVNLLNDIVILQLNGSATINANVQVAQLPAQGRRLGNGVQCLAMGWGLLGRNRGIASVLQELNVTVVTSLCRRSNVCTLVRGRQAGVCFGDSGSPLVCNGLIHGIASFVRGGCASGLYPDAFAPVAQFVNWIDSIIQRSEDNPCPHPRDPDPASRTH

Columns and labels:
[1] = target: cathepsin G (Homo sapiens, UniProt P08311); conditions: human NE vs cathepsin G; cited from earlier work
[2] = target: proteinase-3 (Homo sapiens, UniProt P24158); conditions: human NE vs proteinase-3; cited from earlier work
[3] = tested on: chymotrypsin; conditions: human NE vs chymotrypsin; cited from earlier work
[4] = tested on: pancreatic elastase; conditions: human NE vs pancreatic elastase; cited from earlier work
[5] = tested on: trypsin; conditions: human NE vs trypsin; cited from earlier work
[6] = target: NE (Homo sapiens, UniProt P08246); conditions: explosive-release assay; cited from earlier work

Cc1c(-c2ccnn2C)cc(C(=O)NCc2ccc(S(C)(=O)=O)cn2)c(=O)n1-c1cccc(C(F)(F)F)c1 [alvelestat, N-{[5-(methanesulfonyl)pyridin-2-yl]methyl}-6-methyl-5-(1-methyl-1H-pyrazol-5-yl)-2-oxo-1-[3-(trifluoromethyl)phenyl]-1,2-dihydropyridine-3-carboxamide]
selectivity for human NE compared with cathepsin G [1]: at least 600 fold
selectivity for human NE compared with proteinase-3 [2]: at least 1900 fold
selectivity for human NE compared with chymotrypsin [3]: at least 1900 fold
selectivity for human NE compared with pancreatic elastase [4]: at least 1900 fold
selectivity for human NE compared with trypsin [5]: at least 1900 fold
IC50 [6]: 50 nM
pIC50 [6]: 7.30
